pEC50, pKd: −log10 of the molar value.
Key:
[1] = molecular target: T1, Beta-1 adrenergic receptor (Homo sapiens, UniProt P08588); experiment: Partial agonist activity at human beta1 adrenoceptor expressed in CHOK1 cells assessed as induction of [3H]cAMP accumulation after 5 hrs; format: functional, cell-based, CHO-K1
[2] = molecular target: T1, Beta-1 adrenergic receptor; experiment: Antagonist activity at human beta1 adrenoceptor expressed in CHOK1 cells assessed as inhibition of cimaterol-induced [3H]cAMP accumulation incubated for 15 mins prior to cimaterol induction measured after 5 hrs; format: functional, cell-based, CHO-K1
[3] = molecular target: T1, Beta-1 adrenergic receptor; experiment: Displacement of [3H]-CGP12177 from human beta1 adrenoceptor expressed in CHOK1 cells after 2 hrs by scintillation counting analysis; format: cell-based, CHO-K1

Amino acid sequences for entries named in this document (tags omitted).
UniProt P08588, whole entry: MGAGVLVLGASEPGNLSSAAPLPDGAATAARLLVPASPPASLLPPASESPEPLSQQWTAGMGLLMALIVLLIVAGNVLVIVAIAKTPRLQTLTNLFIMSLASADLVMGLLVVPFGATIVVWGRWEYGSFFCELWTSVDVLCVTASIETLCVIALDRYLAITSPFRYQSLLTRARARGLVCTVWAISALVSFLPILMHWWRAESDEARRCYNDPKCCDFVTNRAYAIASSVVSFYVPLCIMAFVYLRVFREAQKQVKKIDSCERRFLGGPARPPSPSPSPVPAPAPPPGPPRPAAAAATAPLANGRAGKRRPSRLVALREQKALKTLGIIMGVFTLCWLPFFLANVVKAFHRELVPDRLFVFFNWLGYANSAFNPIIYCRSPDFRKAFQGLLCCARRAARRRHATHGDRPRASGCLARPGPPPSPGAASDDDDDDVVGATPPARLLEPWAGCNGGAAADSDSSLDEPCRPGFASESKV

pEC50 [1]: 8.64
pKd [2]: 8.77
pKd [3]: 8.04
Structure (SMILES): N#Cc1cc(OCCOCC2CC2)ccc1OCC(O)CNCCNC(=O)Nc1ccc(O)cc1 (stereo not drawn) [LK-204545]

Source: ChEMBL document CHEMBL2346523, “Synthesis and in vitro and in vivo characterization of highly β1-selective β-adrenoceptor partial agonists” (J Med Chem, 2013)
